Where a name gives a salt, the structure may show the parent alone.

The nature of the data set: Human observed oral migalastat exposures following a single oral dose of 1250 mg. The settings on record: in vivo.

For the compound `OC[C@H]1NC[C@H](O)[C@@H](O)[C@H]1O` [migalastat HCl, (2R,3S,4R,5S)-2-(hydroxymethyl) piperdine-3,4,5-triol], the AUC runs as follows: (Maximum observed individual AUC, single oral dose 1250 mg) 116000 ng·h/mL; (Median observed individual AUC, single oral dose 1250 mg) 73200 ng·h/mL; (Minimum observed individual AUC, single oral dose 1250 mg) 28900 ng·h/mL; (maximum exposure (AUC), oral administration of 1250 mg) 116000 ng·h/mL. Further, the Cmax runs as follows: (Maximum observed individual Cmax, single oral dose 1250 mg) 21900 ng/mL; (Median observed individual Cmax, single oral dose 1250 mg) 13000 ng/mL; (Minimum observed individual Cmax, single oral dose 1250 mg) 4780 ng/mL.

The values are drawn from patent US10155027B2, “Alpha-galactosidase A and 1-deoxygalactonojirimycin co-formulation for the treatment of fabry disease” (Amicus Therapeutics, Inc., priority 2012, dated 2018).
